{"source": "patent US11400102B2", "about": "“Treatment for bacterial infections with salicylic acid analogs” (priority 2019, dated 2022)", "key": {"bacterial growth": {"system": "bacterial growth", "conditions": "0.05 μM to 1000 μM"}, "strain growth": {"system": "strain growth", "conditions": "50 μM, FIGS. 34-36"}}}
{"compound": "Cc1ccc(O)c(C(=O)O)c1", "note": "[5-methylsalicylic acid]", "values": [{"measurement": "bacterial growth by optical density", "setting": "bacterial growth", "result": "None of the doses of 5-methyl salicylic acid affected bacterial growth"}, {"measurement": "growth of the bacterial strain", "setting": "strain growth", "result": "does not inhibit"}]}
